Experimental findings from patent publication US20060171941A1 are described below.

The assay deals with bovine submaxillary mucin (TAG-72 positive) (bovine). In words: competition RIA against 125I-mCC49 on BSM; relative affinity constant, modified Scatchard.

murine CC49 monoclonal antibody returned a Ka of 1.98e+08 M⁻¹.
